{"sequences": {"note": "By UniProt entry, the sequences of proteins in these tests, tags left out. Where a name states a change or a piece, a line headed by the entry shows the natural chain unless it says otherwise.", "UniProt P17405": "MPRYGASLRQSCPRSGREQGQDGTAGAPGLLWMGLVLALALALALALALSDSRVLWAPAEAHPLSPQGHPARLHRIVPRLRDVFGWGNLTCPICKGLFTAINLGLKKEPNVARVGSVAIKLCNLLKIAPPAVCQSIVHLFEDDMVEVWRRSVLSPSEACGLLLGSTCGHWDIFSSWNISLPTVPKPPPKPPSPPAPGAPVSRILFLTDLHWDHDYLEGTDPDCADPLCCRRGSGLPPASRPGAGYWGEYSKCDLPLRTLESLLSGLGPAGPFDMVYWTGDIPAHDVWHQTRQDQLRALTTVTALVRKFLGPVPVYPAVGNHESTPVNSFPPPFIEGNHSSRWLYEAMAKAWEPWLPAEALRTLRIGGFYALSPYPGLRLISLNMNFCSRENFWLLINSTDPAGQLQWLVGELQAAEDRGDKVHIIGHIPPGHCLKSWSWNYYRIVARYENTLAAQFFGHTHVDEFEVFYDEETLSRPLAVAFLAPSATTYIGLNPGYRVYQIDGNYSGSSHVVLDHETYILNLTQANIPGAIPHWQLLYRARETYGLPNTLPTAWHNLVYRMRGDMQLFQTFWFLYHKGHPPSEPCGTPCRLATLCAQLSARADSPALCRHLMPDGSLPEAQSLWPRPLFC"}, "source": "PubChem BioAssay AID504937", "about": "(National Center for Advancing Translational Sciences (NCATS), 2011)", "note": "This is a selection; strong and weak results do not stand in their true shares. Activity calls are given as the source filed them. Calls come from the whole dose curve; as a rule, active = well fitted inhibition curve with a large enough effect; inconclusive = small, poorly fitted or top-dose-only effect; inactive = no such curve, though single readings can be large or run the other way.", "data": [{"molecular_target": "Sphingomyelin phosphodiesterase (Homo sapiens) (UniProt P17405)", "experiment": "Inhibitors of Secretory Acid Sphingomyelinase (S-ASM): qHTS", "details": "placental ASM, HMU-PC fluorogenic substrate (series up to 57.5 µM), 60 min; at 57.5 µM (top of the series)", "values": [{"smiles": "COc1ccc(C2=NCC(CBr)S2)cc1", "note": "(stereo not drawn)", "activity change, negative = inhibition": "inactive: 1.08%"}, {"smiles": "CC(=O)N1C2C3N(C(C)=O)C1C1N(C(C)=O)C(C(N1C(C)=O)N3C(C)=O)N2C(C)=O", "activity change, negative = inhibition": "inactive: 2.98%"}, {"smiles": "O=[N+]([O-])c1cccc2n[nH]nc12", "activity change, negative = inhibition": "inactive: 3.4%"}, {"smiles": "O=[N+]([O-])c1cc([N+](=O)[O-])c(CCNc2ccccc2)c([N+](=O)[O-])c1", "activity change, negative = inhibition": "inactive: -0.705%"}, {"smiles": "CCc1nc2c(n1)c1c(non1O)c1c2no[n+]1[O-]", "activity change, negative = inhibition": "inactive: -0.595%"}, {"smiles": "Cc1ccc(NP(=O)(Oc2ccccc2)Oc2ccccc2)nc1", "activity change, negative = inhibition": "inactive: 4.2%"}, {"smiles": "C[N+]1=C2C=CC=CC=C2SC12C([N+](=O)[O-])=CC([N+](=O)[O-])=C[C-]2[N+](=O)[O-]", "note": "(stereo not drawn)", "activity change, negative = inhibition": "inactive: -12.3%"}, {"smiles": "Nc1ccc([As](=O)(O)c2ccc(N)cc2)cc1", "activity change, negative = inhibition": "inactive: 3.98%"}, {"smiles": "CCN(/C(=N/P(=O)(N1CCOCC1)N1CCOCC1)N1CCOCC1)c1ccc(OC)cc1", "activity change, negative = inhibition": "inactive: 3.87%"}, {"smiles": "CN(C)C(=O)OCCc1n(C)cc[n+]1C", "activity change, negative = inhibition": "inactive: 4.66%"}, {"smiles": "CC(C)=N/N=C(\\N)N[N+](=O)[O-]", "activity change, negative = inhibition": "inactive: 2.98%"}, {"smiles": "CC1CCN(C(=O)Oc2c(Cl)cc(Cl)c3cccnc23)CC1", "activity change, negative = inhibition": "inactive: -3.54%"}, {"smiles": "O=P1(N(CCCl)CCCl)OCCCS1", "note": "(stereo not drawn)", "activity change, negative = inhibition": "inactive: 5.15%"}, {"smiles": "CC(C)(C)C(=O)NC(Sc1ccncn1)C(Cl)(Cl)Cl", "note": "(stereo not drawn)", "activity change, negative = inhibition": "inactive: -1.08%"}, {"smiles": "O=[N+]([O-])c1ncn(CCn2ncnc2[N+](=O)[O-])n1", "activity change, negative = inhibition": "inactive: -2.7%"}, {"smiles": "COC(=O)C1(C)COP(=O)(Nc2ccccc2)OC1", "note": "(stereo not drawn)", "activity change, negative = inhibition": "inactive: 2.18%"}, {"smiles": "O=[N+]([O-])c1cccc(NC2=NCC(CBr)S2)c1", "note": "(stereo not drawn)", "activity change, negative = inhibition": "inactive: -9.64%"}, {"smiles": "O=C(O)CNc1ccc([As](=O)(O)O)cc1", "activity change, negative = inhibition": "inactive: -0.401%"}, {"smiles": "COc1ccc(N)c([N+](=O)[O-])c1[N+](=O)[O-]", "activity change, negative = inhibition": "inactive: -4.22%"}, {"smiles": "CN(C)C1(CNC(=O)c2ccc(Cl)c(S(N)(=O)=O)c2)CCCCC1", "activity change, negative = inhibition": "inactive: -3.35%"}, {"smiles": "O=P(Nc1ccccn1)(c1ccc(Br)cc1)c1ccc(Br)cc1", "activity change, negative = inhibition": "inactive: -1.59%"}, {"smiles": "C[C@H]1OP(=O)(Oc2ccccc2)[C@H](O)[C@H](O)[C@H]1N=[N+]=[N-]", "note": "(stereo partly drawn)", "activity change, negative = inhibition": "inactive: -6.24%"}, {"smiles": "O=P(Nc1nc2ccccc2s1)(c1ccccc1)c1ccccc1", "activity change, negative = inhibition": "inactive: 3.28%"}, {"smiles": "CC(=O)NC(SC(=S)N(C)C)C(Cl)(Cl)Cl", "note": "(stereo not drawn)", "activity change, negative = inhibition": "inactive: 1.4%"}, {"smiles": "O=[N+]([O-])c1ncn(CCn2cnc([N+](=O)[O-])n2)n1", "activity change, negative = inhibition": "inactive: 0.615%"}, {"smiles": "O=[N+]([O-])c1ccc(O)c(/C=N/Nc2ccc([N+](=O)[O-])cc2[N+](=O)[O-])c1", "activity change, negative = inhibition": "inactive: -7.77%"}, {"smiles": "O=[As](O)(c1ccccc1)c1ccc(O)cc1", "activity change, negative = inhibition": "inactive: 0.0863%"}, {"smiles": "C(Cc1nn[nH]n1)Cc1nn[nH]n1", "activity change, negative = inhibition": "inactive: 3.03%"}, {"smiles": "Nc1ccc([As](=O)(O)c2ccc([N+](=O)[O-])cc2)cc1", "activity change, negative = inhibition": "inactive: 1.29%"}, {"smiles": "O=C(OC1CN2CCC1CC2)c1cccc(Cl)c1", "note": "(stereo not drawn)", "activity change, negative = inhibition": "inactive: -1.1%"}, {"smiles": "O=P(Nc1nccs1)(c1ccccc1)c1ccccc1", "activity change, negative = inhibition": "inactive: 4.1%"}, {"smiles": "CC(C)C(=O)NC(Sc1ccccc1)C(Cl)(Cl)Cl", "note": "(stereo not drawn)", "activity change, negative = inhibition": "inactive: -3.23%"}, {"smiles": "c1nnnn1CCn1cnnn1", "activity change, negative = inhibition": "inactive: -0.164%"}, {"smiles": "CCOc1ccc(C2=NCC(CBr)S2)cc1", "note": "(stereo not drawn)", "activity change, negative = inhibition": "inactive: 6.04%"}, {"smiles": "CCc1cc(O)c([N+](=O)[O-])c(C)c1[N+](=O)[O-]", "activity change, negative = inhibition": "inactive: -5.16%"}, {"smiles": "CC(C)(C)C(=O)NC(Sc1ccccc1)C(Cl)(Cl)Cl", "note": "(stereo not drawn)", "activity change, negative = inhibition": "inactive: 0.999%"}, {"smiles": "COC(=O)C1(C)COP(=O)(NCc2ccccc2)OC1", "note": "(stereo not drawn)", "activity change, negative = inhibition": "inactive: 0.592%"}, {"smiles": "CC(=O)c1ccc(N2CC2c2ccncc2)cc1", "note": "(stereo not drawn)", "activity change, negative = inhibition": "inactive: -2.53%"}, {"smiles": "N#C/C(=C\\c1ccc(N(CCBr)CCBr)cc1)C(N)=O", "activity change, negative = inhibition": "inactive: 42%"}, {"smiles": "C[C@H]1OP(=O)(Oc2ccccc2)C[C@@H]2O[C@@H]21", "note": "(stereo partly drawn)", "activity change, negative = inhibition": "inactive: 9.98%"}, {"smiles": "C[C@@H]1C=CCP(=O)(Oc2ccccc2)O1", "note": "(stereo partly drawn)", "activity change, negative = inhibition": "inactive: 14.6%"}, {"smiles": "Cc1ccccc1CN(C)C(=O)COC(=O)C(O)(c1ccccc1)c1ccccc1", "activity change, negative = inhibition": "inactive: -2.63%"}, {"smiles": "CC(=O)Nc1ccc(Oc2c([N+](=O)[O-])cc([N+](=O)[O-])cc2[N+](=O)[O-])cc1", "activity change, negative = inhibition": "inactive: -9.18%"}, {"smiles": "CC(=O)Nc1ccc([As](=O)(O)O)c(O)c1", "activity change, negative = inhibition": "inactive: -12.1%"}, {"smiles": "O=C(NC1CCS(=O)(=O)C1)NP(=S)(Oc1ccccc1)Oc1ccccc1", "note": "(stereo not drawn)", "activity change, negative = inhibition": "inactive: -3.83%"}, {"smiles": "CCNC(=S)/N=C(\\N)N[N+](=O)[O-]", "activity change, negative = inhibition": "inactive: -1.63%"}, {"smiles": "Cc1ccc(NP(=O)(Oc2cccc(C)c2)Oc2cccc(C)c2)nc1", "activity change, negative = inhibition": "inactive: -1.74%"}, {"smiles": "c1ccc(-c2nn[nH]n2)c(-c2nn[nH]n2)c1", "activity change, negative = inhibition": "inactive: 1.85%"}, {"smiles": "O=P1(N(CCCl)CCCl)OCCC2CCCCN21", "note": "(stereo not drawn)", "activity change, negative = inhibition": "inactive: 2.32%"}, {"smiles": "CC(=O)NC(SC(=S)N(CC(C)C)CC(C)C)C(Cl)(Cl)Cl", "note": "(stereo not drawn)", "activity change, negative = inhibition": "inactive: 0.0902%"}, {"smiles": "Cc1ccc(OP(=O)(Nc2ccccn2)Oc2ccc(C)cc2)cc1", "activity change, negative = inhibition": "inactive: 10.8%"}, {"smiles": "COC(=O)c1cc2c(s1)N=C(c1ccccc1)N(C)P2(=O)N1CCOCC1", "note": "(stereo not drawn)", "activity change, negative = inhibition": "inactive: -1.08%"}, {"smiles": "CCC(=O)N1C2C3N(C(=O)CC)C1C1N(C(=O)CC)C(C(N1C(=O)CC)N3C(=O)CC)N2C(=O)CC", "activity change, negative = inhibition": "inactive: 0.124%"}, {"smiles": "O=C(OC1CN2CCC1CC2)c1ccccc1", "note": "(stereo not drawn)", "activity change, negative = inhibition": "inactive: -5.16%"}, {"smiles": "O=c1c2cc([N+](=O)[O-])ccc2[nH]c2c([N+](=O)[O-])cc([N+](=O)[O-])cc12", "activity change, negative = inhibition": "inactive: -17.6%"}, {"smiles": "CN(C)C(=O)Oc1noc2ccccc12", "activity change, negative = inhibition": "inactive: 8.18%"}, {"smiles": "CC(NC(=O)COC(=O)C(O)(c1ccccc1)c1ccccc1)c1ccccc1", "note": "(stereo not drawn)", "activity change, negative = inhibition": "inactive: -3.76%"}, {"smiles": "Cc1ccccc1OP(=O)(Nc1ccccn1)Oc1ccccc1C", "activity change, negative = inhibition": "inactive: 0.242%"}]}]}
